Measurements from patent US11103509B2 (University of Kentucky Research Foundation, priority 2018, dated 2021).

Key:
human mPGES-1 = biological target: T1, human mPGES-1 (Homo sapiens, UniProt O14684); test: in vitro inhibitory activity against human mPGES-1 (PGE2 enzyme immunoassay); assay type: biochemical
T1 construct: made in house
T1 sequence (O14684 1-152): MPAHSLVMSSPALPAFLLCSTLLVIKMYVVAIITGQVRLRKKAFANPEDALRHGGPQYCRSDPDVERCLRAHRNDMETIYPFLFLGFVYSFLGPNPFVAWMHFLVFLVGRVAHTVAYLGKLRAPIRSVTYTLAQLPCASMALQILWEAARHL
Method: The above computational predictions were followed by in vitro activity assays for their actual inhibitory activity against human mPGES-1 using an ELISA assay previously-described.^16-17, 19 Specifically, a total of 18 FDA-approved drugs were assayed for their inhibitory activity against human mPGES-1.
The protocol for the protein preparation and in vitro activity assays were the same as described previously.^69-72 The enzyme activity assays were performed on ice in 1.5 ml microfuge tubes by using the expressed human mPGES-1. The reaction mixture contained: 0.2 M Na2HPO4/NaH2PO4, pH 7.2, 10 μL; 0.1 M GSH, 2.5 μL; diluted microsomal enzyme (80 μg/mL), 1 μL; PGH2 (0.31 mM in DMF), 5 μL; 1 μL inhibitor; and H2O in a final reaction volume of 100 μL. PGH2 was stored in dry ice and used to initiate the reaction. Compounds were incubated with the enzyme for 15 min at room temperature before the addition of cold PGH2 (1 μM final) to initiate the enzyme reaction. After 30 s, 10 μL of SnCl2 (40 mg/mL) in ethanol was added to stop the reaction. The non-enzymatic conversion of PGH2 to PGE2 was performed in the same buffer devoid of enzyme. The reaction mixture was placed on ice until PGE2 production was determined by the PGE2 enzyme immunoassay as described earlier. IC50 values of the inhibitors were calculated by using the GraphPad Prism 6.0.

pain in cancer patients = details: NCT00490139 Group III: oral lapatinib 1500 mg daily, 52 weeks; cited from earlier work
[1] = human, dose 900 mg, tablets, daily oral, trial EGF10004; read-out: Cmax (μM) in plasma; cited from earlier work

SMILES	IC50 (human mPGES-1)	Back Pain, Patient counts (pain in cancer patients)	Cmax [1]
C[C@]12C=CC(=O)C=C1CC[C@@H]1[C@@H]2[C@@H](O)C[C@@]2(C)[C@H]1CC[C@]2(O)C(=O)CO [Prednisolone]	12.6 ± 1.6 µM		
CS(=O)(=O)CCNCc1ccc(-c2ccc3ncnc(Nc4ccc(OCc5cccc(F)c5)c(Cl)c4)c3c2)o1 [lapatinib]		119/2057	2.93 µM
